# Measurements as given in patent publication EP4847505A1, “4-METHYLSULFONYL-SUBSTITUTED PIPERIDINE UREA COMPOUNDS” (dated 2026).
# The chains behind the UniProt entries cited, without tags or fusion partners.
# UniProt Q9BE39, whole entry: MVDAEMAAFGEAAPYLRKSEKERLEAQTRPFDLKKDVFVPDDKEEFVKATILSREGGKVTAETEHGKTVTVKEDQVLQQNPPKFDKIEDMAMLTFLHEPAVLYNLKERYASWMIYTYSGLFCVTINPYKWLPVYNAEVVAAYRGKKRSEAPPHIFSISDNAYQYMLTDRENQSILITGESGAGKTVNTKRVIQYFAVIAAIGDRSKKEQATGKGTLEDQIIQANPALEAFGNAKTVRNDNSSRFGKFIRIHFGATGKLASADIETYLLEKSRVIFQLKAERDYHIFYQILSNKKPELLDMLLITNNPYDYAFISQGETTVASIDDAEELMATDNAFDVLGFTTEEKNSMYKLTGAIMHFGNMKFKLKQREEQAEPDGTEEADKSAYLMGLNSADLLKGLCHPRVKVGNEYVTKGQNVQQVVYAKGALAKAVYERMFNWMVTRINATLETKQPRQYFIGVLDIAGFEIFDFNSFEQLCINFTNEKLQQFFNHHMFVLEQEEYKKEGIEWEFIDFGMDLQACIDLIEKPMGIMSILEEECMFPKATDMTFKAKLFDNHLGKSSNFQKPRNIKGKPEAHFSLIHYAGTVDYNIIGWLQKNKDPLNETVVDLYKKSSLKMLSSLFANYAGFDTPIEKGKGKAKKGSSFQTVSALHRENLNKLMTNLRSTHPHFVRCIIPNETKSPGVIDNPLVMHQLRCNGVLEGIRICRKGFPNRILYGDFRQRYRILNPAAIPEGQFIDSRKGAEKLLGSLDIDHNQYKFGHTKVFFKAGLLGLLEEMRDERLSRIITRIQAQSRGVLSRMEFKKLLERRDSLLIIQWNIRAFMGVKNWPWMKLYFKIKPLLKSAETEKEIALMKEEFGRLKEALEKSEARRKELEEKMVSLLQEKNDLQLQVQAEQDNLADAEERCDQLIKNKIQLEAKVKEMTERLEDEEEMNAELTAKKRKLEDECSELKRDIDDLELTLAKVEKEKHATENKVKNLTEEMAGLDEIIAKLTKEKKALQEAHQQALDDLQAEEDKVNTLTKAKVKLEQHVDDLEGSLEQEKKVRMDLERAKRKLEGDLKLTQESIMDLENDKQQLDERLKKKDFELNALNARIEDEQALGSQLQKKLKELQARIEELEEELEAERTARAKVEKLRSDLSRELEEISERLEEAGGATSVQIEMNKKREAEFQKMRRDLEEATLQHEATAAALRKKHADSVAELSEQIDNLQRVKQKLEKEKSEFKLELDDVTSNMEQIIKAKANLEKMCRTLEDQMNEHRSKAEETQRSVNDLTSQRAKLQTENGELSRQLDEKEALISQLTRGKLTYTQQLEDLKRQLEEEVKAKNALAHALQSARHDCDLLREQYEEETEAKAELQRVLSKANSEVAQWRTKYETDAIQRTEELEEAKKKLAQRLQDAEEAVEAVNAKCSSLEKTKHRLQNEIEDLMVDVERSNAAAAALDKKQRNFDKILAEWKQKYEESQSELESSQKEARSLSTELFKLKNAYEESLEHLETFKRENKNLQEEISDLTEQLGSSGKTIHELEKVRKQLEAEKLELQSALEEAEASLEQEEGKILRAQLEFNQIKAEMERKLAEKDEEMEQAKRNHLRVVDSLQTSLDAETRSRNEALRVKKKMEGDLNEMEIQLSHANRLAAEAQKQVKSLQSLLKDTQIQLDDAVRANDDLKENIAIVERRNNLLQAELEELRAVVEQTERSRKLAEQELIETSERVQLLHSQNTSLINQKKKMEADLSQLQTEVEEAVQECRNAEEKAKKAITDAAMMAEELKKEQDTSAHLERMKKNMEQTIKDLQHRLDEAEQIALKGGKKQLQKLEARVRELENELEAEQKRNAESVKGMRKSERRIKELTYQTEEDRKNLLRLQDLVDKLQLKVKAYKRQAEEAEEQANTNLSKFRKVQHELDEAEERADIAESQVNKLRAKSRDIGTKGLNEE
# UniProt P85100, whole entry partner: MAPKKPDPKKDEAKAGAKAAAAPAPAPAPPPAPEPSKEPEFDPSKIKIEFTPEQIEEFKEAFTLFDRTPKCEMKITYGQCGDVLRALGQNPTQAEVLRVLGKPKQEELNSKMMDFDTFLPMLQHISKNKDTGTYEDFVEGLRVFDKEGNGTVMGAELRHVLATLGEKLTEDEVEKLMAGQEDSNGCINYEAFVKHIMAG
# UniProt Q3SZE5, whole entry partner: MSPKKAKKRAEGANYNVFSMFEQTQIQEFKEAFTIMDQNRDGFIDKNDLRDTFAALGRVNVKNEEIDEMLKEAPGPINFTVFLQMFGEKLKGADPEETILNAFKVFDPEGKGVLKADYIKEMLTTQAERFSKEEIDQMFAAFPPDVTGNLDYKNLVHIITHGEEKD
# Target: bovine cardiac myosin (Bos taurus, UniProt Q9BE39)
# Test: Myosin activation assay (PK/LDH-coupled ATPase, bovine cardiac myofibrils)
# Conditions: concentration at which the total response is increased by twenty percent
# Method: Small molecule agents were assessed for their ability to activate the enzymatic activity of bovine cardiac myosin using a biochemical assay that couples the release of ADP (adenosine diphosphate) from cardiac myosin to an enzymatic coupling system consisting of pyruvate kinase and lactate dehydrogenase (PK/LDH) and monitoring the absorbance decrease of NADH (at 340 nm) as a function of time. PK converts ADP to ATP (adenosine triphosphate) by converting PEP (phosphoenolpyruvate) to pyruvate. Pyruvate is then converted to lactate by LDH by converting NADH (nicotinamide adenine dinucleotide) to NAD (oxidized nicotinamide adenine dinucleotide). The source of cardiac myosin was from bovine heart in the form of skinned myofibrils. Prior to testing small molecule agents, the bovine myofibrils were assessed for their calcium responsiveness and the calcium concentration that achieves either a 50% (pCa50 or pCa = ~ 6) or < 5% (pCa = 10) activation of the myofibril system was chosen as the final condition for assessing the activation activity of the small molecule agents. All enzymatic activity was measured in a buffered solution containing 12 mM PIPES (piperazine-N,N'-bis(2-ethanesulfonic acid), 2 mM magnesium chloride at pH 6.8 (PM12 buffer). Final assay conditions were 1 mg/mL of bovine cardiac myofibrils, 0.4 mM PK/LDH, 50 uM ATP, 0.1 mg/mL BSA (bovine serum albumin), 10 ppm antifoam, 2 mM BME, 0.5 mM NADH, 1.5 mM PEP at the desired free calcium concentration required to achieve either 50% or < 5% activation of the myofibrils.
# A dilution series of compound was created in DMSO such that the final desired concentration of compound would be achieved in a volume of 100 µL with a fixed DMSO concentration of 3.3% (v/v). Typically a 1 µL of the dilution series was added to a 384 well plate to achieve a 10 point dose response. Following the addition of 14 µL of a solution containing bovine cardiac myofibrils, PK/LDH and a solution of calcium (that achieved the desired activation), the enzymatic reaction was started with the addition of 15 µL of a solution containing ATP, PEP and NADH. The reaction progress was followed in a PerkinElmer Envision plate reader at ambient temperature using clear bottom plates. The plate reader was configured to read absorbance at 340 nm in kinetics mode for 15 minutes. Data were recorded as the slope of the absorbance response to time. The slopes of the absorbance response as a function of time were normalized to slopes on the plate containing DMSO. This normalized rate was then plotted as a function of small molecule concentration and the data was fitted to a four-parameter fit using EXCEL XLfit. The concentration at which the total response is increased by twenty or fifty percent is reported as AC20 or AC50. […] Table 2. Myosin Activation of Selected Compoundsa
row,Structure (SMILES),Myosin Activation (AC20)
1,O=C(Nc1ccnnc1)N1CCC(C(F)(F)S(=O)(=O)c2cccc(C(F)(F)F)c2)CC1,++ (++ represents myosin activation value AC20 from 2 µM - 5 µM)
2,Cn1cc(S(=O)(=O)[C@@](C)(F)C2CCN(C(=O)Nc3ccon3)CC2)c(C(F)F)n1,+++ (+++ represents myosin activation value AC20 < 2 µM)
3,C[C@@H](O)c1cc(NC(=O)N2CCC([C@](C)(F)S(=O)(=O)c3cccc(F)c3)CC2)ccn1,+ (+ represents myosin activation value AC20 > 5 µM)
4,CN(C(=O)N1CCC(C(C)(C)S(=O)(=O)c2cccc(F)c2)CC1)c1ccncc1,+ (+ represents myosin activation value AC20 > 5 µM)
5,CCn1nccc1S(=O)(=O)C(C)(F)C1CCN(C(=O)Nc2ccnnc2)CC1 (stereo not shown),++ (++ represents myosin activation value AC20 from 2 µM - 5 µM)
6,CC(F)(C1CCN(C(=O)Nc2ccnnc2)CC1)S(=O)(=O)c1ccc(OC(F)F)nc1 (stereo not shown),+++ (+++ represents myosin activation value AC20 < 2 µM)
7,C[C@@H](O)c1cc(NC(=O)N2CCC(C(F)(F)S(=O)(=O)c3cn(C)nc3C(F)F)CC2)ccn1,+ (+ represents myosin activation value AC20 > 5 µM)
8,Cc1ccccc1S(=O)(=O)C(C)(C)C1CCN(C(=O)Nc2ccns2)CC1,+++ (+++ represents myosin activation value AC20 < 2 µM)
9,O=C(Nc1ccnnc1)N1CCC(C(F)(F)S(=O)(=O)c2ccc(O)nc2)CC1,+ (+ represents myosin activation value AC20 > 5 µM)
10,CC(F)(C1CCN(C(=O)Nc2ccnnc2)CC1)S(=O)(=O)c1ccc(C(F)(F)F)cc1 (stereo not shown),++ (++ represents myosin activation value AC20 from 2 µM - 5 µM)
11,CC(C)(C1CCN(C(=O)Nc2ccns2)CC1)S(=O)(=O)c1ccccc1C#N,+ (+ represents myosin activation value AC20 > 5 µM)
12,Cc1cc(NC(=O)N2CCC([C@@](C)(F)S(=O)(=O)c3cn(C)nc3C(F)F)CC2)ccn1,+ (+ represents myosin activation value AC20 > 5 µM)
13,O=C(Nc1cncs1)N1CCC(C2(S(=O)(=O)c3cccc(F)c3)CC2)CC1,+++ (+++ represents myosin activation value AC20 < 2 µM)
14,CC(F)(C1CCN(C(=O)Nc2cnns2)CC1)S(=O)(=O)c1ccc(C#N)cc1 (stereo not shown),+++ (+++ represents myosin activation value AC20 < 2 µM)
15,Cc1nocc1NC(=O)N1CCC(C(C)(F)S(=O)(=O)c2cccc(F)c2)CC1 (stereo not shown),+ (+ represents myosin activation value AC20 > 5 µM)
16,Cn1cc(S(=O)(=O)C(C)(C)C2CCN(C(=O)Nc3ccnnc3)CC2)c(Cl)n1,++ (++ represents myosin activation value AC20 from 2 µM - 5 µM)
17,CC(C)(C1CCN(C(=O)Nc2ccnnc2)CC1)S(=O)(=O)c1ccccc1C#N,+ (+ represents myosin activation value AC20 > 5 µM)
18,COc1ccccc1S(=O)(=O)C(C)(C)C1CCN(C(=O)Nc2ccncc2)CC1,+++ (+++ represents myosin activation value AC20 < 2 µM)
19,Cc1ccc(NC(=O)N2CCC(C(C)(F)S(=O)(=O)c3cccc(F)c3)CC2)cn1 (stereo not shown),+ (+ represents myosin activation value AC20 > 5 µM)
20,Cn1nccc1S(=O)(=O)C(C)(C)C1CCN(C(=O)Nc2ccncc2)CC1,++ (++ represents myosin activation value AC20 from 2 µM - 5 µM)
21,O=C(Nc1ccnnc1)N1CCC(C(F)(F)S(=O)(=O)c2ccc(C(F)(F)F)c(F)c2)CC1,++ (++ represents myosin activation value AC20 from 2 µM - 5 µM)
22,C[C@](F)(C1CCN(C(=O)Nc2ccnnc2)CC1)S(=O)(=O)c1cccc(F)c1,+++ (+++ represents myosin activation value AC20 < 2 µM)
23,Cn1cc(S(=O)(=O)C(F)(F)C2CCN(C(=O)Nc3ccon3)CC2)c(C(F)F)n1,+ (+ represents myosin activation value AC20 > 5 µM)

row,Structure (SMILES),Myosin Activation (AC20)
1,C[C@@](F)(C1CCN(C(=O)Nc2ccnnc2)CC1)S(=O)(=O)c1cccc(F)c1,+ (+ represents myosin activation value AC20 > 5 µM)
2,O=C(Nc1ccnnc1)N1CCC(C(F)(F)S(=O)(=O)c2ccccc2CO)CC1,++ (++ represents myosin activation value AC20 from 2 µM - 5 µM)
3,Cn1nccc1S(=O)(=O)C(C)(F)C1CCN(C(=O)Nc2cnns2)CC1 (stereo not shown),+++ (+++ represents myosin activation value AC20 < 2 µM)
4,Cc1ccc(NC(=O)N2CCC(C(C)(C)S(=O)(=O)c3ccnn3C)CC2)cn1,+ (+ represents myosin activation value AC20 > 5 µM)
5,O=C(Nc1ccnnc1)N1CCC(C(F)(F)S(=O)(=O)c2cccn3ccnc23)CC1,+ (+ represents myosin activation value AC20 > 5 µM)
6,O=C(Nc1ccnnc1)N1CCC(C(F)(F)S(=O)(=O)c2ccc(N3CCC3)nc2)CC1,++ (++ represents myosin activation value AC20 from 2 µM - 5 µM)
7,Cn1ncc2c(S(=O)(=O)C(F)(F)C3CCN(C(=O)Nc4ccnnc4)CC3)cccc21,++ (++ represents myosin activation value AC20 from 2 µM - 5 µM)
8,Cn1nccc1S(=O)(=O)C1(C2CCN(C(=O)Nc3cnns3)CC2)CCC1,+++ (+++ represents myosin activation value AC20 < 2 µM)
9,O=C(Nc1ccnnc1)N1CCC(C2(S(=O)(=O)c3cc(F)cc(F)c3)CCC2)CC1,+++ (+++ represents myosin activation value AC20 < 2 µM)
10,CC(F)(C1CCN(C(=O)Nc2ccnnc2)CC1)S(=O)(=O)c1ccccc1Cl (stereo not shown),+++ (+++ represents myosin activation value AC20 < 2 µM)
11,Cn1nc(Cl)cc1S(=O)(=O)C(C)(C)C1CCN(C(=O)Nc2ccon2)CC1,+++ (+++ represents myosin activation value AC20 < 2 µM)
12,O=C(Nc1ccnnc1)N1CCC(C(F)(F)S(=O)(=O)c2ccccc2-n2cccn2)CC1,+ (+ represents myosin activation value AC20 > 5 µM)
13,Cn1nccc1S(=O)(=O)C(F)(F)C1CCN(C(=O)Nc2ccnnc2)CC1,+ (+ represents myosin activation value AC20 > 5 µM)
14,Cc1ccc(NC(=O)N2CCC([C@](C)(F)S(=O)(=O)c3cn(C)nc3C(F)F)CC2)cn1,++ (++ represents myosin activation value AC20 from 2 µM - 5 µM)
15,Cn1cc(S(=O)(=O)C(C)(C)C2CCN(C(=O)Nc3ccnnc3)CC2)c(C(F)(F)F)n1,++ (++ represents myosin activation value AC20 from 2 µM - 5 µM)
16,C[C@](F)(C1CCN(C(=O)Nc2ccnc(CO)c2)CC1)S(=O)(=O)c1cccc(F)c1,+++ (+++ represents myosin activation value AC20 < 2 µM)
17,CC(C1CCN(C(=O)Nc2ccncc2)CC1)S(=O)(=O)c1cccc(F)c1 (stereo not shown),++ (++ represents myosin activation value AC20 from 2 µM - 5 µM)
18,Cn1nccc1S(=O)(=O)C(C)(C)C1CCN(C(=O)Nc2ccnnc2)CC1,+++ (+++ represents myosin activation value AC20 < 2 µM)
19,CC(C)(C1CCN(C(=O)Nc2ccon2)CC1)S(=O)(=O)c1cccc(F)c1,+ (+ represents myosin activation value AC20 > 5 µM)
20,Cn1cc(S(=O)(=O)C(F)(F)C2CCN(C(=O)Nc3ccnc(CO)c3)CC2)c(C(F)F)n1,++ (++ represents myosin activation value AC20 from 2 µM - 5 µM)
21,Cn1ccc(NC(=O)N2CCC(C(C)(C)S(=O)(=O)c3cccc(F)c3)CC2)n1,+ (+ represents myosin activation value AC20 > 5 µM)
22,Cn1nccc1NC(=O)N1CCC(C(C)(C)S(=O)(=O)c2cccc(F)c2)CC1,+ (+ represents myosin activation value AC20 > 5 µM)
23,CC(F)(C1CCN(C(=O)Nc2ccon2)CC1)S(=O)(=O)c1ccc(C(F)(F)F)cc1 (stereo not shown),+++ (+++ represents myosin activation value AC20 < 2 µM)
